Data reported in article PMC9697344.

Biological target: human epidermal growth factor receptor expressed on M3-EGFR cells (human) (UniProt P00533)
Experiment: radioligand binding

Kd: 5.3 nM
Substance: human epidermal growth factor labeled with 125I (ligand)
